Earlier results in patent publication US11279711B2, “Condensed heterocyclic derivates as BCL-2 inhibitors for the treatment of neoplastic diseases” (Newave Pharmaceutical Inc., priority 2017, dated 2022).

Protein sequences, listed by entry. Tags and fused reporters are not part of them.
UniProt P10415, whole entry: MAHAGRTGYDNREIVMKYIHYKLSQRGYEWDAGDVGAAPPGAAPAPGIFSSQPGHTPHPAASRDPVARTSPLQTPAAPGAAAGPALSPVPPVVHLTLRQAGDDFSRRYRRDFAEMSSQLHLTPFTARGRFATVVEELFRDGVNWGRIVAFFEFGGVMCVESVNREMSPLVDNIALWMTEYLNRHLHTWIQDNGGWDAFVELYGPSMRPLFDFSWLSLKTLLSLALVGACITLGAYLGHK

Biological target: Bcl-2 (Homo sapiens, UniProt P10415)
Settings: cited from earlier work

Structure (SMILES): CC1(C)CCC(c2ccc(Cl)cc2)=C(CN2CCN(c3ccc(C(=O)NS(=O)(=O)c4ccc(N[C@H](CCN5CCOCC5)CSc5ccccc5)c(S(=O)(=O)C(F)(F)F)c4)cc3)CC2)C1 [ABT-263]
- Ki: ≤ 1 nM
